Source: PubChem BioAssay
RAD54 branch: RAD54 (human) branch migration inhibition; Q92698; RAD54 Holliday junction branch migration, FAM/BHQ fluorescence; inhibition, % at 10.4 µM; 360,000 tested, 0.14% active; AID 602329;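 active means mean normalized replicate activity at least 40 and at least half of replicates scoring 40 or more; inconclusive means only one of the two criteria met; inactive means mean below 40 and under half of replicates reaching 40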;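 further: 0% = median of neutral control wells and 100% = median of positive control wells; inhibitors cause a drop in the FAM fluorescence signal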
RAD52 inh: blocks human RAD52 DNA annealing. 360,000 tested, 0.46% active. AID 651710. recombinant RAD52 DNA annealing, FRET fluorescence. P43351. inhibition, % at 18.7 µM;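 active means every replicate showing at least 50% inhibition; inconclusive means mean inhibition at least 50% but not in every replicate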
E-selectin induc: induces E-selectin expression in human endothelial cells; P16581; HUVEC E-selectin immunofluorescence imaging; normalized: neutral wells 0, TNF-alpha wells 100; activation, % at 7.58 µM; 260,000 tested, 0.37% active; AID 686992;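 active means mean E-selectin-positive cell signal at least 10% of the positive control, reached in at least 60% of replicates, without over 20% cell loss; inconclusive means no rule given, readout overlaps actives, possibly toxicity-flagged; inactive means the rest, including those meeting only one limit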
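System: HUVEC / Compound: single concentration / Signal: immunofluorescence imaging / Read-out: percent E-selectin-positive cells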
AF4-AF9 inh: blocks AF4 peptide binding to human AF9; inhibition, % at 10 µM; AID 651704; AlphaScreen, biotin-AF4 peptide binding to FLAG-AF9; 350,000 tested, 0.47% active; P42568;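 active means every replicate reaching a set inhibition limit, whatever the replicate mean, cut at about 25% in these data; inconclusive means mean inhibition reaches that limit but some replicates miss it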;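 further: 0% = plate neutral control median and 100% = total signal loss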
Yeast UUG start: alters start codon recognition fidelity in yeast. S. cerevisiae UUG-firefly luciferase reporter, luminescence/redox ratio. AID 602363. activity score, % at 18.7 µM. hit rate 0.13% among 350,000;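 active = replicate mean at a twofold rise or more, about +100% in these data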;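 note: firefly luciferase made from a UUG start codon reports start codon fidelity; reporter light over untreated wells divided by growth signal over untreated wells; some hits fall short of that in this replicate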
SIRT5 block: sirtuin-5 (human) deacylase inhibition | Purified SirT5, succinyl-peptide AMC, trypsin-coupled fluorescence | 330,000 tested, 1.1% active | Q9NXA8 | inhibition, % at 15 µM; in the data active means inhibition above about 15%; inconclusive means no clear call, values can overlap the other calls
Numbers without * were called inactive; ? = inconclusive; / = no result; ! = a repeat was not active. This is a sample that favours compounds with a hit; in the whole collection about 1.8% have one here.

1. C[C@@H]1CN([C@@H](C)CO)C(=O)c2cccc(NC(=O)c3ccc(-c4nccs4)cc3)c2O[C@@H]1CN(C)Cc1ccc(Oc2ccccc2)cc1
2. C[C@H]1CN([C@@H](C)CO)C(=O)c2cccc(NC(=O)c3ccc(-c4nccs4)cc3)c2O[C@H]1CN(C)Cc1ccc(Oc2ccccc2)cc1
3. C[C@H](CO)N1C[C@H](C)[C@H](CN(C)Cc2ccc(Cl)c(Cl)c2)Oc2c(NC(=O)c3ccc(-c4nccs4)cc3)cccc2C1=O
4. C[C@H](CO)N1C[C@H](C)[C@@H](CN(C)Cc2ccc(Oc3ccccc3)cc2)Oc2c(NC(=O)c3ccc(-c4nccs4)cc3)cccc2C1=O
5. CCCN(C)C[C@H]1Oc2cc(C#CC(C)(C)O)ccc2S(=O)(=O)N([C@H](C)CO)C[C@H]1C
6. COc1ccc(CN(C)C[C@H]2Oc3c(NS(=O)(=O)c4c(C)noc4C)cccc3C(=O)N([C@H](C)CO)C[C@H]2C)cc1
7. C[C@@H]1CN([C@@H](C)CO)C(=O)c2cccc(NC(=O)c3ccc(-c4nccs4)cc3)c2O[C@@H]1CN(C)Cc1ccccc1
8. COc1ccc(NC(=O)Nc2ccc3c(c2)C(=O)N([C@H](C)CO)C[C@@H](C)[C@@H](CN(C)C(=O)C2CCCCC2)OCCCC[C@H](C)O3)cc1

| entry no. | 1 | 2 | 3 | 4 | 5 | 6 | 7 | 8 |
| --- | --- | --- | --- | --- | --- | --- | --- | --- |
| RAD54 branch | 2 | 8 | 0 | -19 | 9 | 0 | -5 | -8 |
| RAD52 inh | 7 | -45 | 14 | -18 | 1 | 0 | 14 | -20 |
| E-selectin induc | ? | ? | -7 | 1 | 0 | 0 | 0 | 2 |
| AF4-AF9 inh | -3 | -1 | 3 | -5 | 2 | -3 | 0 | 3 |
| Yeast UUG start | -5 | 18 | 5 | 27 | -1 | -12 | -7 | 7 |
| SIRT5 block | 12 | 21* | 4 | 16* | 6 | 0 | 15* | 17*! |

9. C[C@H]1CCCCO[C@H](CN(C)C(=O)C2CCCCC2)[C@@H](C)CN([C@@H](C)CO)C(=O)c2cc(NC(=O)NC3CCCCC3)ccc2O1
10. COc1ccc(NC(=O)Nc2ccc3c(c2)C(=O)N([C@@H](C)CO)C[C@@H](C)[C@H](CN(C)C(=O)C2CCCCC2)OCCCC[C@H](C)O3)cc1
11. C[C@H](CO)N1C[C@H](C)[C@@H](CN(C)C(=O)C2CCCCC2)OCCCC[C@H](C)Oc2ccc(NC(=O)Nc3ccc(F)cc3)cc2C1=O
12. O=C(Nn1c(-c2ccncc2)nc2ccccc2c1=O)c1ccccc1Br
13. O=C(Nn1c(-c2ccncc2)nc2ccccc2c1=O)c1ccc(Br)cc1
14. CO[C@H](CN(C)C(=O)c1ccc2c(c1)OCO2)[C@H](C)CN([C@H](C)CO)S(=O)(=O)c1ccccc1
15. CO[C@@H](CN(C)C(=O)c1ccc2c(c1)OCO2)[C@@H](C)CN([C@@H](C)CO)S(=O)(=O)c1ccccc1
16. CCC(=O)N1C[C@H](C)[C@H](OC)CN(C)C(=O)c2cc(NC(=O)c3ccc(F)cc3)ccc2OC[C@H]1C

| entry no. | 9 | 10 | 11 | 12 | 13 | 14 | 15 | 16 |
| --- | --- | --- | --- | --- | --- | --- | --- | --- |
| RAD54 branch | -7 | -6 | 1 | / | / | -4 | 3 | -5 |
| RAD52 inh | -12 | -5 | -2 | -3 | -1 | -10 | -8 | -7 |
| E-selectin induc | 0 | 0 | 1 | 114* | / | 0 | 0 | 2 |
| AF4-AF9 inh | 0 | -6 | 6 | -1 | 1 | -1 | -1 | 3 |
| Yeast UUG start | -8 | -5 | -6 | / | / | / | / | 0 |
| SIRT5 block | 16*! | 1 | 22* | -1 | -1 | 27* | -2 | 3 |

17. O=C(C1COc2ccccc2O1)N1CCCC1 (stereo not given)
18. O=C(C1COc2ccccc2O1)N1CCN(c2ccccc2O)CC1 (stereo not given)
19. CC(=O)c1cccc(CN2CCN(CC=C(C)C)C(CCO)C2)c1 (stereo not given)
20. CC(C)=CCN1CCN(Cc2cn(C(C)C)c3ccccc23)CC1CCO (stereo not given)
21. CSc1cccc(CN2CCN(Cc3ccc(F)c(F)c3)C(CCO)C2)c1 (stereo not given)
22. CC(=O)c1cccc(CN2CCN(CCc3ccccc3)C(CCO)C2)c1 (stereo not given)
23. Cc1ccc(CN2CCN(Cc3cn(C(C)C)c4ccccc34)CC2CCO)o1 (stereo not given)
24. COc1ccc2c3c([nH]c2c1)[C@@H](CO)N(C(=O)NC(C)C)CC31CN(C(=O)c2cnccn2)C1

| entry no. | 17 | 18 | 19 | 20 | 21 | 22 | 23 | 24 |
| --- | --- | --- | --- | --- | --- | --- | --- | --- |
| RAD54 branch | -3 | -1 | 0 | -7 | / | / | -2 | / |
| RAD52 inh | / | -2 | -4 | -8 | -4 | -15 | -14 | -10 |
| E-selectin induc | / | -2 | -3 | / | / | / | / | 0 |
| AF4-AF9 inh | / | 2 | -35 | -1 | 6 | 0 | 6 | 0 |
| Yeast UUG start | -11 | 6 | 5 | -11 | / | / | -13 | / |
| SIRT5 block | / | 17* | 17* | 22* | 16* | -1 | -1 | 1 |

The list goes on, overlapping the part above by 3 compounds.
22. CC(=O)c1cccc(CN2CCN(CCc3ccccc3)C(CCO)C2)c1 (stereo not given)
23. Cc1ccc(CN2CCN(Cc3cn(C(C)C)c4ccccc34)CC2CCO)o1 (stereo not given)
24. COc1ccc2c3c([nH]c2c1)[C@@H](CO)N(C(=O)NC(C)C)CC31CN(C(=O)c2cnccn2)C1
25. CCC(=O)Nc1ccc2c(c1)C(=O)N(C)C[C@H](OC)[C@@H](C)CN(C(=O)c1ccncc1)[C@@H](C)CO2
26. Cc1cccc(C)c1Nc1c(-c2ccccn2)nc2ccccn12
27. Cc1ccccc1Nc1c(-c2ccccn2)nc2c(C)cccn12
28. C[C@@H]1CCCCO[C@@H](CN(C)Cc2ccccc2)[C@@H](C)CN([C@@H](C)CO)C(=O)c2cc(NS(=O)(=O)c3ccc(Cl)cc3)ccc2O1
29. Cc1ccc(S(=O)(=O)Nc2ccc3c(c2)C(=O)N([C@@H](C)CO)C[C@@H](C)[C@H](CN(C)Cc2ccccc2)OCCCC[C@H](C)O3)cc1
30. C[C@H]1CCCCO[C@@H](CN(C)Cc2ccccc2)[C@@H](C)CN([C@@H](C)CO)C(=O)c2cc(NS(=O)(=O)c3ccc(Cl)cc3)ccc2O1
31. C[C@H](CO)N1C[C@H](C)[C@H](CN(C)Cc2ccccc2)OCCCC[C@H](C)Oc2ccc(NS(=O)(=O)c3ccc(Cl)cc3)cc2C1=O
32. CO[C@H]1CN(C)C(=O)c2cc(NC(=O)Cc3ccccc3)ccc2OC[C@@H](C)N(CC2CC2)C[C@H]1C

| entry no. | 22 | 23 | 24 | 25 | 26 | 27 | 28 | 29 | 30 | 31 | 32 |
| --- | --- | --- | --- | --- | --- | --- | --- | --- | --- | --- | --- |
| RAD54 branch | / | -2 | / | -3 | 0 | 3 | 2 | / | -3 | -2 | 1 |
| RAD52 inh | -15 | -14 | -10 | -5 | 7 | 0 | 58* | 7 | 39 | 52* | 5 |
| E-selectin induc | / | / | 0 | 0 | -4 | 0 | / | / | / | / | 0 |
| AF4-AF9 inh | 0 | 6 | 0 | 1 | / | 34* | 3 | 1 | 7 | 11 | -1 |
| Yeast UUG start | / | -13 | / | -17 | -26 | -27 | 19 | / | 35 | 34 | -2 |
| SIRT5 block | -1 | -1 | 1 | -6 | 0 | -3 | 18* | 17* | 6 | 10 | -1 |

33. Cc1ccc(NC(=O)c2nc(S(=O)(=O)Cc3ccccc3C)ncc2Cl)cc1C
34. NC(=O)c1ccc(NC(=O)CCCc2nc(-c3ccccc3Cl)no2)cc1
35. O=C(C[C@H]1CC[C@H]2[C@@H](COC[C@H](O)CN2Cc2cc(F)cc(F)c2)O1)NC1CCC1
36. CCCN(C)C[C@H]1Oc2ncc(-c3ccccc3)cc2C(=O)N([C@H](C)CO)C[C@H]1C
37. O=C(C[C@H]1CC[C@@H](NC(=O)C2CCOCC2)[C@H](CO)O1)NCc1ccccc1Cl

| entry no. | 33 | 34 | 35 | 36 | 37 |
| --- | --- | --- | --- | --- | --- |
| RAD54 branch | -3 | 3 | 0 | 0 | -2 |
| RAD52 inh | -21 | -10 | -4 | 7 | 1 |
| E-selectin induc | 0 | / | 0 | 0 | 0 |
| AF4-AF9 inh | 0 | / | 0 | 0 | -2 |
| Yeast UUG start | -16 | -12 | / | / | 6 |
| SIRT5 block | 16* | 18* | -2 | 0 | 8 |
